In patent US20190071506A1:

Molecular target: epidermal growth factor receptor (EGFR) (human) (UniProt P00533)
Test: cell-based or functional assay

## scFv-425-SNAP-IR700
  EC50, cell viability (XTT) after light treatment, A431 cells: 32 nM
  EC50, cell viability (XTT) after light treatment, IGR-1 cells: 45 nM
  EC50, cell viability (XTT) after light treatment, IGR-39 cells: 55 nM
